UUG fidelity = modulators of start codon recognition fidelity in yeast; AID 602363; hit rate 0.13% among 350,000; activity score, % at 18.7 µM; S. cerevisiae UUG-firefly luciferase reporter, luminescence/redox ratio;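 active = replicate mean at a twofold rise or more, about +100% in these data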;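 note: firefly luciferase made from a UUG start codon reports start codon fidelity; reporter light over untreated wells divided by growth signal over untreated wells; some hits fall short of that in this replicate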
NALP1 inh = NALP1 inhibition; S. cerevisiae NALP1/ASC/caspase-1 growth, X-gal OD620, 72 h; inhibition, % at 10 µM; 280,000 compounds, 0.61% hits; AID 2071; in the data active = inhibition mostly above about 24%, no sharp cut-off; inactive = mostly below about 32%
MC4R antag cAMP = human MC4R antagonism in cAMP assay. MC4R-expressing cells, MTII-stimulated cAMP, LANCE TR-FRET. P32245. inhibition, % at 6.5 µM. AID 540295. 360,000 compounds, 0.48% hits;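 active = inhibition above its plate's cutoff, the mean of tested wells on that plate plus 3 SD, cut at about 29% in these data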;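 also: 0% = Melanotan II alone and 100% = Melanotan II plus saturating MCL0020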
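Material – human MC4R-expressing U2OS cells · Repeats – no replicates · Detection – TR-FRET with Eu-cAMP and labeled anti-cAMP, 671 nm · Times – compound 30 min, challenge 1 h, detection 1 h · Compound – single nominal compound dose of 6.5 µM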
HDAC3 inhib = human HDAC3 inhibition; O15379; recombinant HDAC3, fluorogenic peptide/trypsin coupled, fluorescence; inhibition, % at 8.3 µM; 320,000 compounds, 0.15% hits; in the data active = inhibition above about 26%, passing the limit was not always enough; inconclusive = no clear call, values can overlap the other calls
MC4R barr agon = agonists of human melanocortin 4 receptor (MC4R) beta-arrestin | P32245 | U2OS MC4R beta-arrestin complementation, luminescence; percent of melanotan II response, DMSO zero | activation, % at 8.9 µM | 360,000 compounds, 0.98% hits | AID 540308;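 active = activation above a per-plate cutoff, the mean activation of sample wells on that plate plus 3 SD, cut at about 8% in these data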
ALR H2O2 inh = inhibitors of human sulfhydryl oxidase ALR | 290,000 compounds, 3.8% hits | AID 485317 | inhibition, % (test concentration not listed) | P55789 | purified ALR, DTT oxidation, H2O2 HRP-luminol luminescence;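 active = mean and each replicate at 75% or more; inconclusive = only one of the two met; inactive = neither met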;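 also: stock transfer was 7.5 nL into about 7.5 µL; 0% = neutral wells and 100% = wells with inactivated enzyme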
* = called active by the depositor; ? = inconclusive; nt = no result. An excerpt weighted towards active compounds, which were near 4.2% of everything screened.

no.	structure	NALP1 inh	MC4R antag cAMP	HDAC3 inhib	ALR H2O2 inh	UUG fidelity	MC4R barr agon
1	CCCCCCCCCCOC(=O)Cn1c(COc2ccccc2C)[n+](C)c2ccccc21	1	3	14	-21	-21	49*
2	CCCCCCCCCCOC(=O)Cn1c(COc2ccc(Cl)cc2)[n+](C)c2ccccc21	61*	22	52*	-21	-82	17*
3	CCOC(=O)Cn1c(COc2ccccc2OC)[n+](C)c2ccccc21	nt	1	4	0	-32	-1
4	CC(=O)N[C@@H]1CC[C@@H](CCNC(=O)C2CC2)O[C@@H]1CO	nt	nt	nt	nt	-8	nt
5	CCCN(C)C[C@H]1Oc2cc(C#CCC3CCCC3)ccc2S(=O)(=O)N([C@H](C)CO)C[C@@H]1C	nt	nt	nt	nt	15	nt
6	O=C1CC(SCc2nc3ccccc3[nH]2)C(=O)N1c1cccc(Cl)c1 (stereo unspecified)	7	6	-7	98*	-41	-2
7	O=C1CC(SCc2nc3ccccc3[nH]2)C(=O)N1c1ccc(F)cc1 (stereo unspecified)	-9	-2	-2	32	-14	0
8	O=C(CSc1nc(-c2ccccc2)nn1C(=O)c1ccccc1)Nc1cccc([N+](=O)[O-])c1	6	4	41*	-3	-13	-4
9	Nc1ccc(SCC(=O)Nc2cccc([N+](=O)[O-])c2)cc1	-2	-7	5	99*	nt	1
10	O=C(CSc1nncc(=O)[nH]1)Nc1cccc([N+](=O)[O-])c1	2	6	-4	100*	-7	-3
11	O=C(CSCCO)Nc1cccc([N+](=O)[O-])c1	10	0	0	-4	nt	0
12	COc1ccc(-c2nc(CSCC(=O)N3CCN(c4cccc(C)c4)C(C)C3)c(C)o2)cc1OC (stereo unspecified)	14	9	-4	99*	-2	0
13	COc1ccc(-c2nc(CSCC(=O)N3CCC(C(N)=O)CC3)c(C)o2)cc1OC	16	-2	2	99*	-16	-1
14	COc1ccc(-c2nc(C#N)c(N3CCc4ccccc4C3)o2)cc1OC	9	2	-36	-10	9	12*
15	COc1ccc(-c2nc(CSCC(=O)N3CCc4ccccc4C3)c(C)o2)cc1OC	nt	0	12	98*	9	-1
16	COc1ccccc1-c1nc(C#N)c(N2CCc3ccccc3C2)o1	22	9	-112	1	-12	2
17	C[C@@H]1CN([C@@H](C)CO)C(=O)c2cc(C#CCN(C)C)cnc2O[C@@H]1CN(C)C(=O)Nc1cccc(F)c1	nt	nt	nt	nt	22	nt
18	CC1=C(C)CS(=O)N(S(=O)(=O)c2ccccc2)C1 (stereo unspecified)	3	-3	2	99*	-27	-2
19	CC1=C(C)CS(=O)N(c2ccc(S(N)(=O)=O)cc2)C1 (stereo unspecified)	8	13	2	73	-5	0
20	O=C(O)c1cc(S(=O)(=O)N2CCN(C(c3ccccc3)c3ccccc3)CC2)ccc1Cl	13	-3	3	87*	-4	0
21	O=C(O)c1cc(S(=O)(=O)N2CCN(S(=O)(=O)c3ccccc3)CC2)ccc1Cl	-4	9	-2	nt	-9	1
22	C#CCOCCOCCOCCNc1nc(N2CCN(C(=O)CCCCCCCCCCNC(=O)[C@H](CO)n3cc(CCCSC)nn3)CC2)nc(N2CCN(C(=O)CCCCCCCCCCNC(=O)[C@H](CCCCN)n3cc(CCO)nn3)CC2)n1	nt	8	20	-11	22	1
23	C#CCOCCOCCOCCNc1nc(N2CCN(C(=O)CCCCCCCCCCNC(=O)[C@H](CO)n3cc(CCCSC)nn3)CC2)nc(N2CCN(C(=O)CCCCCCCCCCNC(=O)[C@H](CCCN=C(N)N)n3cc(C[C@@H](C)CC)nn3)CC2)n1	nt	53*	?	-25	-5	0
24	C#CCOCCOCCOCCNc1nc(N2CCN(C(=O)CCCCCCCCCCNC(=O)Cn3cc(C[C@@H](C)O)nn3)CC2)nc(N2CCN(C(=O)CCCCCCCCCCNC(=O)[C@H](CCCN=C(N)N)n3cc(C[C@@H](C)CC)nn3)CC2)n1	nt	42*	?	-3	8	-2

Printed as active in MC4R antag cAMP, of those listed so far:
no.	structure	NALP1 inh	MC4R antag cAMP	HDAC3 inhib	ALR H2O2 inh	UUG fidelity	MC4R barr agon
23	C#CCOCCOCCOCCNc1nc(N2CCN(C(=O)CCCCCCCCCCNC(=O)[C@H](CO)n3cc(CCCSC)nn3)CC2)nc(N2CCN(C(=O)CCCCCCCCCCNC(=O)[C@H](CCCN=C(N)N)n3cc(C[C@@H](C)CC)nn3)CC2)n1	nt	53*	?	-25	-5	0
24	C#CCOCCOCCOCCNc1nc(N2CCN(C(=O)CCCCCCCCCCNC(=O)Cn3cc(C[C@@H](C)O)nn3)CC2)nc(N2CCN(C(=O)CCCCCCCCCCNC(=O)[C@H](CCCN=C(N)N)n3cc(C[C@@H](C)CC)nn3)CC2)n1	nt	42*	?	-3	8	-2
